Reference: publication PMC7891601 (Clinical Pharmacology and Therapeutics, 2020)

Format: in vivo, human
Conditions: pyrimethamine 10 mg vs control

## CN(C)C(=N)N=C(N)N [Metformin, metformin]
  impact of pyrimethamine on AUC: no impact
